From patent US10696692B2, “Amido-benzyl sulfone and sulfoxide derivates” (Forma TM, LLC, priority 2012, dated 2020)

The chains behind the UniProt entries cited, without tags or fusion partners. Where a name states a change or a piece, a line headed by the entry shows the natural chain unless it says otherwise.
UniProt P43490: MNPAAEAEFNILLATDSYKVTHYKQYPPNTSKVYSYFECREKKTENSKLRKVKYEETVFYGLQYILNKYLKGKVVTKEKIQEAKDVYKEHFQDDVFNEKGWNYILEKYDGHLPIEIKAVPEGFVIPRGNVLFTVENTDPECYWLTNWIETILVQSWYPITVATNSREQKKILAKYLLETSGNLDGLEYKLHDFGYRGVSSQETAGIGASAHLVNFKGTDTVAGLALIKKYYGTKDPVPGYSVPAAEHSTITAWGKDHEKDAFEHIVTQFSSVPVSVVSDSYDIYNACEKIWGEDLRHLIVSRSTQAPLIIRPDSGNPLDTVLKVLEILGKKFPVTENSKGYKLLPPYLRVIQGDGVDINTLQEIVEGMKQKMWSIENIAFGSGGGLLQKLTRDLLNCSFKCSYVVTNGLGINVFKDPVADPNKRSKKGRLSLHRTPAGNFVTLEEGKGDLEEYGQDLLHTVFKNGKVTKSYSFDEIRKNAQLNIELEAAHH

Biological target: NAMPT (Homo sapiens (Human), UniProt P43490)
Assay: Assay 1: Biochemical Inhibition Assay (NAMPT enzymatic reaction, NMN quantified by mass spectrometry);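 note: recombinant His-tagged human NAMPT preincubated with compound 15 min, then reacted 30 min at rt with 1 µM NAM, 100 µM PRPP, 2.5 mM ATP, NMN product read by RapidFire MS, normalized to L-Cystathionine internal standard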

Compound | IC50 [µM]
O=C(NCc1ccc(S(=O)(=O)N2CCC(N3CCCC3)CC2)cc1)c1cnc2[nH]ncc2c1 [Example 156, 1 H-Pyrazolo[3,4-b]pyridine-5-carboxylic acid 4-(4-pyrrolidin-1-yl-piperidine-1-sulfonyl)-benzylamide] | 0.0941
O=C(NCc1ccc(S(=O)(=O)N2CC3(CCNCC3)C2)cc1)c1ccc2nccn2c1 [Example 261, N-[[4-(2,7-diazaspiro[3.5]nonan-2-ylsulfonyl)phenyl]methyl] imidazo[1,2-a]pyridine-6-carboxamide] | 0.0142
